The results in this text go back to patent US7714023B2 (dated 2010).

Protein sequences, listed by entry. Tags and fused reporters are not part of them.
UniProt P23977, whole entry: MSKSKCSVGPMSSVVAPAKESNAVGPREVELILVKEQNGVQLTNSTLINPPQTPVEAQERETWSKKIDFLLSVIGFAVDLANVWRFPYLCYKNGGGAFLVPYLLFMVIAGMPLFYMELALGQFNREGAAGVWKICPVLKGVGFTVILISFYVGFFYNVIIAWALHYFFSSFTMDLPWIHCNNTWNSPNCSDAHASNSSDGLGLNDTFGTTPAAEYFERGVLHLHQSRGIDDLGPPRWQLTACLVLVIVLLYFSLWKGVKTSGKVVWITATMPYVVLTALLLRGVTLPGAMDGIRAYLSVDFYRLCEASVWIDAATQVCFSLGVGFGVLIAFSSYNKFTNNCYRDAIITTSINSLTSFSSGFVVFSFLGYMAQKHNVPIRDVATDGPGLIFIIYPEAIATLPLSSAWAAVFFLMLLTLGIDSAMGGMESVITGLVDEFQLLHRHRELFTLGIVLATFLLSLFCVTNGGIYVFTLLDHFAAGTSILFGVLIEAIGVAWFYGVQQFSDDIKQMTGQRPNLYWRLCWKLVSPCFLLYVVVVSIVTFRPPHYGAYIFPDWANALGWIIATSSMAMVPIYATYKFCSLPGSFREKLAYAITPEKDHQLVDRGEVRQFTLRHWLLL

For orientation: IC50 means the concentration at which inhibition is half-maximal.

The assay deals with DA transporter (Rattus norvegicus, UniProt P23977). The assay can be described thus: DA transporter binding, rat striatum, [3H]GBR12935. Particulars: Transporter and Muscarinic Receptor Binding IC50 DA, Table 2, ten concentrations.

For `CN(C)CCCC1(c2ccc(F)cc2)OCc2cc(C#N)ccc21` (racemic) [reference compound], the IC50 came out at 84.4 µM.
